Laboratory results from US10800772B2 (Gilead Sciences, Inc., priority 2016, dated 2020).

assay: Hum MS stability (human microsomal stability half-life)

SMILES | Hum MS stability t½ [h]
COCCN1CC[C@H](c2nn(C)c3ccc(-c4nc5cc(C)c([C@H](OC(C)(C)C)C(=O)O)c(-c6ccc(Cl)cc6)c5s4)cc23)C1 (single isomer, unassigned) [Compound 68] | 6.58
Cc1cc2nc(-c3ccc4c(c3)c(N3CCN5CCOC[C@@H]5C3)nn4C)sc2c(-c2ccc(Cl)cc2)c1[C@H](OC(C)(C)C)C(=O)O [Compound 4, (S)-2-(tert-butoxy)-2-(7-(4-chlorophenyl)-2-(3-((S)-hexahydropyrazino[2,1-c][1,4]oxazin-8(1H)-yl)-1-methyl-1H-indazol-5-yl)-5-methylbenzo[d]thiazol-6-yl)acetic Acid] | 6.58
Cc1cc2nc(-c3ccc4c(c3)c(C3CCN(CC5CCO5)CC3)nn4C)sc2c(-c2ccc(Cl)cc2)c1[C@H](OC(C)(C)C)C(=O)O (stereo partly drawn) [Compound 6, (2S)-2-(tert-butoxy)-2-(7-(4-chlorophenyl)-5-methyl-2-(1-methyl-3-(1-(oxetan-2-ylmethyl)piperidin-4-yl)-1H-indazol-5-yl)benzo[d]thiazol-6-yl)acetic Acid] | 6.58
CC(=O)N1CC[C@H](N2CCC(c3nn(C)c4ccc(-c5nc6cc(C)c([C@H](OC(C)(C)C)C(=O)O)c(-c7ccc(Cl)cc7)c6s5)cc34)CC2)C1 [Compound 11, (S)-2-(2-(3-(1-((S)-1-acetylpyrrolidin-3-yl)piperidin-4-yl)-1-methyl-1H-indazol-5-yl)-7-(4-chlorophenyl)-5-methylbenzo[d]thiazol-6-yl)-2-(tert-butoxy)acetic Acid] | 6.58
CC(=O)N1CC[C@@H](N2CCC(c3nn(C)c4ccc(-c5nc6cc(C)c([C@H](OC(C)(C)C)C(=O)O)c(-c7ccc(Cl)cc7)c6s5)cc34)CC2)C1 [Compound 12, (S)-2-(2-(3-(1-((R)-1-acetylpyrrolidin-3-yl)piperidin-4-yl)-1-methyl-1H-indazol-5-yl)-7-(4-chlorophenyl)-5-methylbenzo[d]thiazol-6-yl)-2-(tert-butoxy)acetic Acid] | 6.58
CC(=O)N1CC(N2CCC(c3nn(C)c4ccc(-c5nc6cc(C)c([C@H](OC(C)(C)C)C(=O)O)c(-c7ccc(Cl)cc7)c6s5)cc34)CC2)C1 [Compound 30, (S)-2-(2-(3-(1-(1-acetylazetidin-3-yl)piperidin-4-yl)-1-methyl-1H-indazol-5-yl)-7-(4-chlorophenyl)-5-methylbenzo[d]thiazol-6-yl)-2-(tert-butoxy)acetic acid] | 6.58
Cc1cc2nc(-c3ccc4c(c3)c(C3CCN(C5CN(C)C5)CC3)nn4C)sc2c(-c2ccc(Cl)cc2)c1[C@H](OC(C)(C)C)C(=O)O [Compound 31, (S)-2-(tert-butoxy)-2-(7-(4-chlorophenyl)-5-methyl-2-(1-methyl-3-(1-(1-methylazetidin-3-yl)piperidin-4-yl)-1H-indazol-5-yl)benzo[d]thiazol-6-yl)acetic acid] | 6.58
Cc1cc2nc(-c3ccc4c(c3)c(C3CN(C(C)C)C3)nn4C)sc2c(-c2ccc(Cl)cc2)c1[C@H](OC(C)(C)C)C(=O)O [Compound 54, (S)-2-(tert-butoxy)-2-(7-(4-chlorophenyl)-2-(3-(1-isopropylazetidin-3-yl)-1-methyl-1H-indazol-5-yl)-5-methylbenzo[d]thiazol-6-yl)acetic acid] | 6.58
Cc1cc2nc(-c3ccc4c(c3)c(C3CN(C(C)C)C3)nn4C)sc2c(-c2ccc(Cl)cc2)c1[C@H](OC1CC1)C(=O)O [Compound 55, (S)-2-(7-(4-chlorophenyl)-2-(3-(1-isopropylazetidin-3-yl)-1-methyl-1H-indazol-5-yl)-5-methylbenzo[d]thiazol-6-yl)-2-cyclopropoxyacetic Acid] | 6.58
COCCN1CC(c2nn(C)c3ccc(-c4nc5cc(C)c([C@H](OC(C)(C)C)C(=O)O)c(-c6ccc(Cl)cc6)c5s4)cc23)C1 [Compound 56, (S)-2-(tert-butoxy)-2-(7-(4-chlorophenyl)-2-(3-(1-(2-methoxyethyl)azetidin-3-yl)-1-methyl-1H-indazol-5-yl)-5-methylbenzo[d]thiazol-6-yl)acetic acid] | 6.58
Cc1cc2nc(-c3ccc4c(c3)c(C3CN(C)C3)nn4C)sc2c(-c2ccc(Cl)cc2)c1[C@H](OC(C)(C)C)C(=O)O [Compound 57, (S)-2-(tert-butoxy)-2-(7-(4-chlorophenyl)-5-methyl-2-(1-methyl-3-(1-methylazetidin-3-yl)-1H-indazol-5-yl)benzo[d]thiazol-6-yl)acetic acid] | 6.58
CCN1CC(c2nn(C)c3ccc(-c4nc5cc(C)c([C@H](OC(C)(C)C)C(=O)O)c(-c6ccc(Cl)cc6)c5s4)cc23)C1 [Compound 58, (S)-2-(tert-butoxy)-2-(7-(4-chlorophenyl)-2-(3-(1-ethylazetidin-3-yl)-1-methyl-1H-indazol-5-yl)-5-methylbenzo[d]thiazol-6-yl)acetic acid] | 6.58
Cc1cc2nc(-c3ccc4c(c3)c(C3CN(C5COC5)C3)nn4C)sc2c(-c2ccc(Cl)cc2)c1[C@H](OC(C)(C)C)C(=O)O [Compound 59, (S)-2-(tert-butoxy)-2-(7-(4-chlorophenyl)-5-methyl-2-(1-methyl-3-(1-(oxetan-3-yl)azetidin-3-yl)-1H-indazol-5-yl)benzo[d]thiazol-6-yl)acetic acid] | 6.58
Cc1cc2nc(-c3ccc4c(c3)c(C3CCN(C)C3)nn4C)sc2c(-c2ccc(Cl)cc2)c1[C@H](OC(C)(C)C)C(=O)O (stereo partly drawn) [Compound 63, (2S)-2-(tert-butoxy)-2-(7-(4-chlorophenyl)-5-methyl-2-(1-methyl-3-(1-methylpyrrolidin-3-yl)-1H-indazol-5-yl)benzo[d]thiazol-6-yl)acetic acid] | 6.58
CCN1CCC(c2nn(C)c3ccc(-c4nc5cc(C)c([C@H](OC(C)(C)C)C(=O)O)c(-c6ccc(Cl)cc6)c5s4)cc23)C1 (stereo partly drawn) [Compound 64, (2S)-2-(tert-butoxy)-2-(7-(4-chlorophenyl)-2-(3-(1-ethylpyrrolidin-3-yl)-1-methyl-1H-indazol-5-yl)-5-methylbenzo[d]thiazol-6-yl)acetic acid] | 6.58
COCCN1CCC(c2nn(C)c3ccc(-c4nc5cc(C)c([C@H](OC(C)(C)C)C(=O)O)c(-c6ccc(Cl)cc6)c5s4)cc23)C1 (stereo partly drawn) [Compound 65, (2S)-2-(tert-butoxy)-2-(7-(4-chlorophenyl)-2-(3-(1-(2-methoxyethyl)pyrrolidin-3-yl)-1-methyl-1H-indazol-5-yl)-5-methylbenzo[d]thiazol-6-yl)acetic acid] | 6.58
Cc1cc2nc(-c3ccc4c(c3)c(C3CCN(C5CCC5)C3)nn4C)sc2c(-c2ccc(Cl)cc2)c1[C@H](OC(C)(C)C)C(=O)O (stereo partly drawn) [Compound 71, (2S)-2-(tert-butoxy)-2-(7-(4-chlorophenyl)-2-(3-(1-cyclobutylpyrrolidine-3-yl)-1-methyl-1H-indazol-5-yl)-5-methylbenzo[d]thiazol-6-yl)acetic acid] | 6.58
COC(=O)N1CCC(c2nn(C)c3ccc(-c4nc5cc(C)c([C@H](OC(C)(C)C)C(=O)O)c(-c6ccc(Cl)cc6)c5s4)cc23)C1 (stereo partly drawn) [Compound 72, (2S)-2-(tert-butoxy)-2-(7-(4-chlorophenyl)-2-(3-(1-(methoxycarbonyl)pyrrolidin-3-yl)-1-methyl-1H-indazol-5-yl)-5-methylbenzo[d]thiazol-6-yl)acetic acid] | 6.58
